Legend:
[1] = biological target: full-length SARS-CoV-2 HA-Nsp3 (Severe acute respiratory syndrome coronavirus 2 (2019-nCoV) (SARS-CoV-2), UniProt P0DTD1); experiment: biochemical
SARS-CoV-2 PLpro = SARS-CoV-2 PLpro (Severe acute respiratory syndrome coronavirus 2, UniProt P0DTD1); experiment: biochemical

COC(=O)/C=C/C(=O)NNC(=O)CCc1ccccc1C(=O)N[C@H](C)c1cccc2ccccc12 [Compound 7, methyl(R,E)-4-(2-(3-(2-((1-(naphthalen-1 yl)ethyl)carbamoyl)-phenyl)propanoyl)hydrazineyl)-4-oxobut-2-enoate]
IC50 [1]: 38 nM
IC50 (SARS-CoV-2 PLpro): 39 nM

Source: patent US12234202B2, “Covalent inhibitors of coronavirus papain-like protease” (UT-Battelle, LLC, priority 2021, dated 2025)
